Measured values reported in US12123051B2, “Nucleic acid ratio determination” (priority 2017, dated 2024).

Tested on: Chlamydia trachomatis (serovar D) in HEp-2 cells
Experiment: VITA PCR (triplex RT-PCR, GAT1/2 and NED), Treatment Protocol A
Format: cell-based
Details: <MIC (0.008 μg/mL), added 4 h PI, harvested 44 h PI; TR 2

Compound: CC[C@H]1OC(=O)[C@H](C)[C@@H](O[C@H]2C[C@@](C)(OC)[C@@H](O)[C@H](C)O2)[C@H](C)[C@@H](O[C@@H]2O[C@H](C)C[C@H](N(C)C)[C@H]2O)[C@](C)(O)C[C@@H](C)CN(C)[C@H](C)[C@@H](O)[C@]1(C)O [Azithromycin]
- VITA Index: 3.66
